From ChEMBL document CHEMBL5550170, “Discovery of novel benzimidazole derivatives as selective and reversible monoamine oxidase B inhibitors for Parkinson's disease treatment” (Eur J Med Chem, 2024) come the findings set out here.

Data set [1] can be described thus: Apparent volume of distribution in specific pathogen free-Sprague-Dawley rat at 5 mg/kg, iv measured upto 24 hrs. In kind it is ADME, organism-based. Conditions: in vivo.
Data set [2] in a line: Acute toxicity in C57BL/6 mouse assessed as physical abnormalities at 200 mg/kg, ip administered every day for 1 week. The following applies: in vivo, 168 h, time 1 weeks. In kind it is organism-based.
The nature of data set [3]: AUC (0 to 24 hrs) in specific pathogen free-Sprague-Dawley rat at 5 mg/kg, iv measured upto 24 hrs. In kind it is ADME, organism-based. The following applies: in vivo.
A short description of data set [4]: AUC (0 to 24 hrs) in specific pathogen free-Sprague-Dawley rat at 15 mg/kg, po measured upto 24 hrs. Conditions: in vivo. In kind it is ADME, organism-based.
Data set [5] in a line: Half life in specific pathogen free-Sprague-Dawley rat at 15 mg/kg, po measured upto 24 hrs. In kind it is ADME, organism-based. The following applies: in vivo.
In data set [6] the test system is PC-12. The experiment in a line: Antioxidant activity in H2O2-induced rat PC12 cells assessed as reduction in intracellular ROS level by measuring residual fluorescence intensity at 50 uM preincubated with compound for 24 hrs followed by H2O2 induction and measured after 2 hrs by DCFH-DA staining based flow cytometry analysis (reference value: 26.16%). In kind it is functional. Conditions: time 26 hrs. In general terms: In flow cytometry, cells or beads pass a laser one at a time.

The nature of data set [7]: Acute toxicity in C57BL/6 mouse assessed as mental abnormalities at 200 mg/kg, ip administered every day for 1 week. In kind it is organism-based. The following applies: in vivo, 168 h, time 1 weeks.
Data set [8] can be described thus: Clearance in specific pathogen free-Sprague-Dawley rat at 15 mg/kg, po measured upto 24 hrs. In kind it is ADME, organism-based. Conditions: in vivo.
Data set [9] can be described thus: Half life in specific pathogen free-Sprague-Dawley rat at 5 mg/kg, iv measured upto 24 hrs. In kind it is ADME, organism-based. Conditions: in vivo.
Data set [10] is described as follows: Apparent volume of distribution in specific pathogen free-Sprague-Dawley rat at 15 mg/kg, po measured upto 24 hrs. In kind it is ADME, organism-based. The following applies: in vivo.
The nature of data set [11]: Clearance in specific pathogen free-Sprague-Dawley rat at 5 mg/kg, iv measured upto 24 hrs. In kind it is ADME, organism-based. Conditions: in vivo.

By AUC is commonly meant the area under the concentration-time curve, a measure of exposure. The low end stands for less exposure, the high end for more exposure.

With `NC(=O)Cc1nc2cc(OCc3ccc(F)cc3)ccc2[nH]1`, the Vz in data set [1] and in data set [10] was 1.07 L/kg throughout. Moreover, the Activity entry in data set [2] is recorded as “Non-Toxic”; in data set [6] it was 13.24%; in data set [7], “Non-Toxic”. Also, the AUC stood at 11565.69 ng·h/mL in data set [3] and 81937.8 ng·h/mL in [4]. The values for the t1/2 in data set [5] and in data set [9] were 1.67 h and 1.16 h, respectively. Further, the CL was 4.56 mL/day/kg in data set [8] and 10.3 mL/day/kg in [11].
